Measured values: patent publication US10941132B2, “Pyrazole derivatives” (HUA MEDICINE (SHANGHAI) Ltd., priority 2016, dated 2021)

The chains behind the UniProt entries cited, without tags or fusion partners. Residues count along the entry.
UniProt P31424, 21-1203 limits assumed: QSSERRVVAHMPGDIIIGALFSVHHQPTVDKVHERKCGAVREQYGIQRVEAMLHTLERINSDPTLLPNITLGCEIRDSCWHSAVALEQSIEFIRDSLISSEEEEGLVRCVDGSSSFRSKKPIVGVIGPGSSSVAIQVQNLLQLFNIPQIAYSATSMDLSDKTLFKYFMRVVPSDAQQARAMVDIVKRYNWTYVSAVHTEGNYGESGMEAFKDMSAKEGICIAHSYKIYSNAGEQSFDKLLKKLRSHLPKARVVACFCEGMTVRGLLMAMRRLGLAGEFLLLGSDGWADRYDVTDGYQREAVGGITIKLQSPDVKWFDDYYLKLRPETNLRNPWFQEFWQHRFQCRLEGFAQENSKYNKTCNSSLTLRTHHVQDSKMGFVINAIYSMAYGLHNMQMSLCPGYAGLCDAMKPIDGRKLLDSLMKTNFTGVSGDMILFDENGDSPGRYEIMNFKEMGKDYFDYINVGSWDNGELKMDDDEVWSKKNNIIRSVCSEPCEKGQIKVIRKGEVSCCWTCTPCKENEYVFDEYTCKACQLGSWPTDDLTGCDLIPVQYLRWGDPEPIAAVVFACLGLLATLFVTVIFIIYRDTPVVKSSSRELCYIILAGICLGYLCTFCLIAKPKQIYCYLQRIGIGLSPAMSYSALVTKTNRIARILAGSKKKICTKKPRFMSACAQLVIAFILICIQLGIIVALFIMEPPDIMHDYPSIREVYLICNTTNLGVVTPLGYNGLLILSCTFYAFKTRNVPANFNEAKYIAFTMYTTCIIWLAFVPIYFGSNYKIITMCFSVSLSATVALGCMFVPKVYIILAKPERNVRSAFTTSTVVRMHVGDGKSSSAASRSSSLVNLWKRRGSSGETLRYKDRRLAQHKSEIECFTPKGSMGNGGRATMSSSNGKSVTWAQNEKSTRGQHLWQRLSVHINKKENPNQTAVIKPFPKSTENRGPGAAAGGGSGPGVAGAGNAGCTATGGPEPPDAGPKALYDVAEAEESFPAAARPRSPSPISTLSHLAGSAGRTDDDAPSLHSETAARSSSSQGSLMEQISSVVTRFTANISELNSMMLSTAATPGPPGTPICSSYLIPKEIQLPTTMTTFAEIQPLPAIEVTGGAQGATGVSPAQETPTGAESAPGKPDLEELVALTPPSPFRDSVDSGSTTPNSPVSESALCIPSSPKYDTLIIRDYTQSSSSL

Target: recombinant rat mGluR5 (Rattus norvegicus, UniProt P31424)
Test: Functional calcium flux assay (FLIPR), antagonist evaluation against glutamate-evoked [Ca2+]i increase
Type: cell-based
Conditions: read-out: IC50 value (FLIPR assay); Table 1; HEK293 cells stably expressing recombinant rat mGluR5; 15 min incubation of test compound, then submaximal glutamate
Description: Functional Calcium Clux Assay Methodology
For functional assays, HEK293 cells stably expressing recombinant rat mGluR5 were seeded in 384-well plates and dye loaded using Fluo-8. Cells were then washed to remove the un-incorporated dye. Antagonist evaluation was performed following a 15 min incubation of the test compound followed by the addition of submaximal concentration of glutamate. Intracellular calcium ([Ca^2+]i) measurements were performed using a fluorometric imaging plate reader (FLIPR, Molecular Devices). The glutamate-evoked increase in [Ca^2′]i in the presence of the test compounds was compared to the response to glutamate alone (the positive control). Antagonist inhibition curves were fitted with a 4-parameter logistic equation giving IC50 values, and Hill coefficients using an iterative nonlinear curve fitting algorithm.
The tables below provide IC50 data in this assay. In the activity column, A=IC50>1,000 and ≤5,000 nM; B=IC50>500 and ≤1,000 nM and C=IC50≤500 nM.

IC50: 1 to 5 µM
SMILES: COCCOc1c(C#Cc2ncccn2)cnn1-c1ccc(F)cc1
